These results are taken from US20050239873A1, “2 Methoxy antimycin a derivatives and methods of use” (priority 1999, published 2005).

In series [1] the test system is mice. The note with it: single intravenous dose; cited from earlier work.
Series [2] concerns TABX1A cells (under-expressing Bcl-xL). Briefly: Cell viability by trypan blue dye exclusion. The note with it: estimated from the dose-response curve. From the text:
(§1) Briefly, a DNA fragment encoding the full-length mouse BCl-xL cDNA was isolated from the plasmid PBS.BCL-xL (Tzung et al., Am. J. Path. 150:1985-1995, 1997, incorporated herein by reference in its entirety) by digestion with the restriction endonuclease EcoRI. This EcoRI fragment was cloned into the EcoRI site of the mammalian expression vector pSFFV (Fuhlbrigge et al., Proc. Nat. Acad. Sci. USA 85:5649-5653, 1988) in both sense and antisense orientations, to form expression plasmids pSFFV.Bcl-xL(sense) or pSFFV.Bcl-xL(antisense), respectively. […]
(§2) Selected transfectants were then tested for whole cell sensitivity to several apoptotic agents. […] Cell viability was determined by trypan blue dye exclusion. The percentage of viable cells was calculated by the number of viable cells (treated with a particular apoptogenic agent) divided by the number in the control group (untreated).
(§3) TABX2S cells and TABX1A cells were also examined for the effects of various mitochondrial inhibitors. […] At various time points after drug treatment, cells were trypsinized, and cell viability was determined by trypan blue dye exclusion. The number of viable cells were counted and normalized to control group (i.e., % control=number of viable cells (treated group)/number of viable cells (control group)×100).

In series [3] the test system is TAMH.neo cells (control). Briefly: Cell viability by trypan blue dye exclusion. Particulars: estimated from the dose-response curve.
From the text: as §1, §2, §3

Series [4] relates to TABX2S cells (over-expressing Bcl-xL). Particulars: mouse.
From the text: as §1, §2, §3

Take antimycin A: the figures for the LD50 in series [1], in series [2] and in series [3] were 0.893 mg/kg, 8.3 µM and 8.3 µM, respectively. Moreover, the “difference in LD50 between TABX2S and TABX1A or TAMH.neo cells” value in series [4] is reported as “seven-fold”.
